Test system: HCT-116
Test: Cytotoxicity against human HCT-116 cells assessed as cell viability incubated for 24 hrs by MTT assay

Structure (SMILES): CCOP(=O)(OCC)C1CN1Cc1ccccc1 (stereo unspecified)
- IC50: 12.8 µM

Reference: ChEMBL document CHEMBL5107966, “Cascade synthetic strategies opening access to medicinal-relevant aliphatic 3- and 4-membered N-heterocyclic scaffolds” (Eur J Med Chem, 2022)
